# Assay results from patent US11311533B2, “Opioid receptor antagonist conjugate and use thereof” (SHANGHAI HANMAI BIO-PHARMA CO., LTD., priority 2016, dated 2022).
# Sequences of proteins named here, by UniProt entry; tags and fusion partners are left off.
# UniProt P35372, whole entry: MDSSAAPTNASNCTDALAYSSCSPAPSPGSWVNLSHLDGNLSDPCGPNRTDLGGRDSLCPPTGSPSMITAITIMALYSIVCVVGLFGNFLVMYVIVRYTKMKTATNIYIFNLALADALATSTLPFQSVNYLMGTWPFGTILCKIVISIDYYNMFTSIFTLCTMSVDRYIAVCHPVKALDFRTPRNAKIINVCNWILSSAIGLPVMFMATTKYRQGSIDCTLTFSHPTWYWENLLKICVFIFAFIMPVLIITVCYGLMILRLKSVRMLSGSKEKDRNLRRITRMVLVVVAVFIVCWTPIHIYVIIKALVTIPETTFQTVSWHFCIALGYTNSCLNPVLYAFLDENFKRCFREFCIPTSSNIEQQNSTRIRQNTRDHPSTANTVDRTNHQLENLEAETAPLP
# Columns and labels:
# mice [1] = test: Mouse hot plate analgesia experiment (antagonism of morphine analgesia, blood-brain barrier study); format: in vivo; settings: tested form: HCl; for Average Pain Threshold after Administration (s) Mean ± SD: 60 minutes after administration
# [2] = molecular target: OPRM1 (Mμ opioid receptor gene) receptor (Homo sapiens, UniProt P35372); settings: tested form: HCl
# mice [3] = test: Anti-constipation study: antagonizing the antidiarrheal effect of loperamide hydrochloride (castor oil diarrhea); settings: Table 10: 600 nmol/kg by gavage + Loperamide Hydrochloride + Castor Oil; tested form: HCl
smiles,measurement,setting,value
C=CCN1CC[C@]23c4c5ccc(O)c4O[C@H]2[C@@H](OCCOCCOCCOCCOCCOCCOC)CC[C@@]3(O)[C@H]1C5,Average Pain Threshold before Administration (s) Mean ± SD,mice [1]; 3.10 μmol/kg + Morphine group,20.38 ± 4.53 s
same,Percentage of Increase in Pain Threshold,mice [1]; 3.10 μmol/kg + morphine,155.79%
same,Average Pain Threshold after Administration (s) Mean ± SD,mice [1]; 3.10 μmol/kg subcutaneous + Morphine by gavage,52.13 ± 14.78 s
same,Average Pain Threshold before Administration (s) Mean ± SD,mice [1]; 15.52 μmol/kg + Morphine group,24.00 ± 8.38 s
same,Percentage of Increase in Pain Threshold,mice [1]; 15.52 μmol/kg + morphine,112.50%
same,Average Pain Threshold after Administration (s) Mean ± SD,mice [1]; 15.52 μmol/kg subcutaneous + Morphine by gavage,51.00 ± 11.43 s
same,Passage through the blood-brain barrier (concluded from antagonism of the analgesic effect of morphine),"mice [1]; mouse hot plate, conjugate subcutaneous after morphine by gavage",cannot pass through the blood-brain barrier
same,IC50,"[2]; CHO-K1/Gα15/OPRM1 cells, inhibitor detection against EC80 positive agonist, RFU",1320 nM
same,Inhibition rate (%) of highest concentration (mean ± standard deviation) (N = 2),[2]; highest concentration 10000 nM,90.44 ± 3.22%
same,Total Number of Diarrhea Times Six Hours after Administration,mice [3],9.75 ± 6.96
